Test results reported in ChEMBL document CHEMBL5346896, “Development of indolealkylamine derivatives as potential multi-target agents for COVID-19 treatment” (Eur J Med Chem, 2023).

Organism: Homo sapiens
Assay: Selectivity ratio of pKi for displacement of 2-[125I]iodomelatonin from human melatonin MT1 receptor stably expressed in human HEK293 cell membrane to pKi for displacement of 2-[125I]iodomelatonin from human melatonin MT2 receptor stably expressed in human HEK293 cell membrane

Compound	Ratio pKi
COC(=O)NCCc1c(C(O)c2ccccc2)[nH]c2ccc(OC)cc12 (configuration not stated)	0.9
COc1ccc2[nH]c(C(O)c3ccc(Cl)cc3)c(CCNC(C)=O)c2c1 (configuration not stated)	0.86
